Measured values: patent publication US20260217701A1, “SELECTIVE BET INHIBITORS AND USES THEREOF” (Tay Therapeutics Limited, priority 2022, published 2026)

System: imiquimod-induced psoriasis
Assay: Imiquimod-induced psoriasis model
Format: in vivo, mice
Settings: after third and fourth treatment
Source text: Imiquimod-induced psoriasis is a model of psoriasis in mice that induces psoriasis-like dermatitis. The pathology closes resembles human plaque-type psoriasis and is a valuable tool for testing new therapies against psoriasis. […] Compound A was formulated in a 5% DMSO/40% PEG-400/55% (0.9% NaCl w/v water) solution (Table 2F). Experimental groups for the study are outlined in Table 4. Prior to study initiation, the backs of all animals in the study were depilated to allow for induction of psoriasis and monitoring of disease progression. […]
Body weights were recorded three times a week from Day 1 to Day 8, and daily from Day 8 until the study end at Day 15. At termination on D15 the spleen weight ratio was determined. Disease severity was assessed using the psoriasis area severity index (PASI) daily from Day 8 until study completion on Day 15. The PASI score was calculated based on three parameters (presence of erythema, induration of the skin, and peeling of the skin at the area of induction) on a scale of 0 to 4 (0=no more or absence, 1=low, 2=moderate, 3=high, 4=severe). The PASI score for each animal was calculated as the sum of the score of each parameter measured. The score of the use of enrichment (SUE) was also assessed daily from Day 8 to Day 15. […]

In the case of Deucravacitinib [reference compound], the “mortality during the study” value is reported as “two animals died”.
